Laboratory results reported in ChEMBL document CHEMBL4673331 (J Med Chem, 2020).

Columns and labels:
[1] = test system: Mus musculus; assay: Anti-autoimmune disease activity in Balb/c mouse assessed as reduction in anti-DNP induced IgM producing B cells administered twice orally at 12 hrs interval immunized post 1 hr first treatment measured after 8 days by ELISA; assay type: functional, organism-based; conditions: time 8.0 day
[2] = test system: Mus musculus; assay: Anti-autoimmune disease activity in Balb/c mouse assessed as reduction in anti-DNP induced IgG producing B cells administered twice orally at 12 hrs interval immunized post 1 hr first treatment measured after 8 days by ELISA; assay type: functional, organism-based; conditions: time 8.0 day

In the case of `C[C@H]1COC[C@H](C)N1c1c(NC(=O)Nc2ccnc(C(F)(F)F)c2)cnc2cc(Cl)nn12`, the Activity [1] was “Dose-dependent effect” and the Activity [2] was “Dose-dependent effect”.
